We go through 1 compound from US11447533B2, “Antimicrobial and anticancer peptides and conjugates and compositions, methods, articles and kits relating thereto” (George Mason Research Foundation, Inc., priority 2018, dated 2022).

A value given as a limit tells only on which side of the number the result lay.

The series in a line: Cytotoxicity (Alamar blue). The class given is cell-based. To be noted: human, primary lung epithelium cells; ~16 hours (overnight), reduced serum conditions; read-out: concentration decreasing resazurin reduction by 50% (LD50). How it is done:
FIGS. 11A-11B are graphs showing cytotoxicity against primary lung epithelium cells in serum-free condition. Cells were seeded in complete growth medium (Minimal essential medium supplemented with 10% fetal bovine serum) at near-confluence into a 96-well plate and allowed to settle for 24-hours. Media was then replaced to OptiMEM I reduced serum medium containing peptide or vehicle alone (DBPS) and cells were incubated overnight (16 hours). A resazurin based dye (Alamar blue) was added directly to media and conversion of resazurin to resorufin was evaluated following two hours. % Survival represents the proportion of viable cells in peptide treated cells relative to cells treated with vehicle alone. […] Each peptide was tested in triplicate.
FIG. 12 is a graph showing comparison of toxicities against Lung Primary Epithelial cells and Lung Cancerous Epithelial Cells, derived from H358 cell-line. […] Each peptide was tested in triplicate.
Cytotoxicity. Cells were seeded in complete growth medium (Minimal Essential Medium, MEMα, supplemented with 10% Fetal Bovine Serum) into a culture-treated 96-well plate at a density of 25000 cells per well. After 24 hours, culture media was aspirated and replaced with media containing the selected peptide. […] A ratio of reduction in treated versus untreated cells was calculated in order to determine overall cell viability. […]

As for `CC[C@H](C)[C@H](NC(=O)CN)C(=O)NCC(=O)N[C@@H](C)C(=O)N[C@H](C(=O)N[C@@H](CC(C)C)C(=O)N[C@@H](CCCCN)C(=O)N[C@H](C(=O)N[C@@H](CC(C)C)C(=O)N[C@H](C(=O)N[C@H](C(=O)NCC(=O)N[C@@H](CC(C)C)C(=O)N1CCC[C@H]1C(=O)N[C@@H](C)C(=O)N[C@@H](CC(C)C)C(=O)N[C@H](C(=O)N[C@@H](CO)C(=O)N[C@@H](Cc1c[nH]c2ccccc12)C(=O)N[C@H](C(=O)N[C@@H](CCCCN)C(=O)N[C@@H](CCCNC(=N)N)C(=O)N[C@@H](CCCCN)C(=O)N[C@@H](CCCNC(=N)N)C(=O)N[C@@H](CCC(N)=O)C(=O)N[C@@H](CCC(N)=O)C(N)=O)[C@@H](C)CC)[C@@H](C)CC)[C@@H](C)O)[C@@H](C)O)C(C)C)C(C)C` [melittin], the CC50 at 16 h was less than 10 µM.
